In this experiment the target is T1, P2Y purinoceptor 14 (Homo sapiens, UniProt Q15391).
T1 sequence (Q15391 whole entry): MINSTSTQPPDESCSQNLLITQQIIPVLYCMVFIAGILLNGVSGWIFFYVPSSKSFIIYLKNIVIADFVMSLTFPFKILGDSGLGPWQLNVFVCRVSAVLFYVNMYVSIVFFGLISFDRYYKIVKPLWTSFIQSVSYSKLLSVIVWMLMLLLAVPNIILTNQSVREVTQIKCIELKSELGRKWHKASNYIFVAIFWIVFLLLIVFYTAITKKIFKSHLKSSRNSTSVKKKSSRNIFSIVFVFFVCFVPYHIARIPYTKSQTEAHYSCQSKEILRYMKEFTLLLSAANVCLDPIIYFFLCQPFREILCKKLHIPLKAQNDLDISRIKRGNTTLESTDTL
Kind of experiment: Displacement of fluorescent tracer 4-(4-(1-(4-(1-(6-(3-carboxylato-4-(3-iminio-3H-xanthen-9-yl)benzamido)hexyl)-4,5-dihydro-1H-pyrrol-3-yl)butyl)piperidin-1-ium-4-yl)phenyl)-7-(4-(trifluoromethyl)phenyl)-2-naphthoate from human P2Y14R stably expressed in CHO cells assessed as inhibition constant by flow cytometry. The class given is cell-based. Summed up:
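Whole-cell competitive binding: CHO cells expressing hP2Y14R (or HEK-293 cells expressing mP2Y14R) incubated with AlexaFluor488-labelled antagonist tracer at 20 nM. […] Ki derived by dividing IC50 by 1.72.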
In general terms: A flow cytometer gives signals particle by particle.

pKi: −log10 of the molar value.

For orientation: pKi means −log10 of the Ki, conventionally taken in molar units. As for `O=C(O)c1cc(-c2ccc(C3CCNC3)cc2)c2ccc(-c3ccc(C(F)(F)F)cc3)cc2c1` (racemic), the pKi is 7.74.

For the origin of these results see ChEMBL document CHEMBL5331128, “Alicyclic Ring Size Variation of 4-Phenyl-2-naphthoic Acid Derivatives as P2Y14 Receptor Antagonists” (J Med Chem, 2023).
